According to PMC9233675, “Ru(II) photocages enable precise control over enzyme activity with red light” (Nature Communications, 2022):
Changes are numbered by the printed parent chain. Values joined by “and” are separate entries in the source; they are usually repeats but may differ in a detail not shown here. Equal values may be shown once.

How the values were obtained:
[1] = molecular target: T1, CYP1B1 Q332E (Homo sapiens, UniProt Q16678, Q332E); assay: In cell CYP1B1 activity assay, Q332E variant
T1 sequence (Q16678 1-543 Q332E): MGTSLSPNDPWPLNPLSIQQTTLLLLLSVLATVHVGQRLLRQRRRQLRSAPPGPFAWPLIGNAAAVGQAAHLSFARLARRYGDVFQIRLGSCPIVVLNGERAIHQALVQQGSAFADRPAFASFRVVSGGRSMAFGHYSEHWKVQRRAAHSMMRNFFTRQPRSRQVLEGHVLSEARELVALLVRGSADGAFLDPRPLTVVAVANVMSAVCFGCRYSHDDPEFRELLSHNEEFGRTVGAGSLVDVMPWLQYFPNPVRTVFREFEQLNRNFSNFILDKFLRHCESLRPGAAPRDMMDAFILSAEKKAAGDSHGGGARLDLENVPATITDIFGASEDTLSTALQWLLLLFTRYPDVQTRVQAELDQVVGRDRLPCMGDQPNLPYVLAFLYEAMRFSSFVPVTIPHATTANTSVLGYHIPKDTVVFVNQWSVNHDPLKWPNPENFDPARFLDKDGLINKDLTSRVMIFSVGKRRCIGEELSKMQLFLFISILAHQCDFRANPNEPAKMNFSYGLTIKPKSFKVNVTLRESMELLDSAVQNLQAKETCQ

[2] = molecular target: T2, CYP1B1 D333N (Homo sapiens, UniProt Q16678, D333N); assay: In cell CYP1B1 activity assay, D333N variant
T2 sequence (Q16678 1-543 D333N): T1 sequence (Q16678 1-543 Q332E) with E332Q, D333N

[3] = molecular target: T3, CYP1B1 S127A (Homo sapiens, UniProt Q16678, S127A); assay: In cell CYP1B1 activity assay, S127A variant
T3 sequence (Q16678 1-543 S127A): T1 sequence (Q16678 1-543 Q332E) with S127A, E332Q

[4] = molecular target: T4, CYP1B1 F134L (Homo sapiens, UniProt Q16678, F134L); assay: In cell CYP1B1 activity assay, F134L variant
T4 sequence (Q16678 1-543 F134L): T1 sequence (Q16678 1-543 Q332E) with F134L, E332Q

[5] = molecular target: T5, CYP1B1 S269A (Homo sapiens, UniProt Q16678, S269A); assay: In cell CYP1B1 activity assay, S269A variant
T5 sequence (Q16678 1-543 S269A): T1 sequence (Q16678 1-543 Q332E) with S269A, E332Q

[6] = test system: cytochrome P450 enzymes in phLMs; assay: Inhibition of cytochrome P450 enzymes in pooled human liver microsomes (phLM)
[7] = molecular target: T6, CYP1B1 (Homo sapiens, UniProt Q16678); assay: In cell activity assay for CYP1B1 (7-ethoxyresorufin conversion, HEK293 T-Rex cells); conditions: p IC50(uM), negative log of the IC50 in μM
T6 sequence (Q16678 1-543): T1 sequence (Q16678 1-543 Q332E) with E332Q

SMILES	IC50 [1] [nM]	IC50 [2] [nM]	IC50 [3] [nM]	IC50 [4] [nM]	IC50 [5] [nM]	relative enzyme activity in phLMs ([6]; fraction of control (1 = no inhibition), log conc 1.47712)	relative enzyme activity in phLMs ([6]; fraction of control, log conc 0.273001)	relative enzyme activity in phLMs ([6]; fraction of control, log conc 0.875061)	relative enzyme activity in phLMs ([6]; fraction of control, log conc -0.32906)	relative enzyme activity in phLMs ([6]; fraction of control, log conc -0.93112)	relative enzyme activity in phLMs ([6]; fraction of control, log conc -1.53318)	relative enzyme activity in phLMs ([6]; fraction of control, log conc -2.13524)	Ratio IC50 (mutant)/ IC50 (WT), S269A [5]	Ratio IC50 (mutant)/ IC50 (WT), Q332E [1]	SI (1B1:phLM) ([6]; ratio of IC50 phLM to CYP1B1, for complexes 4–6 IC50 (light))	Ratio IC50 (mutant)/ IC50 (WT), D333N [2]	Ratio IC50 (mutant)/ IC50 (WT), S127A [3]	IC50 [7] [µM]	Ratio IC50 (mutant)/ IC50 (WT), F134L [4]
O=c1cc(-c2ccccc2)oc2c1ccc1ccccc12 [ANF, α-naphthoflavone, reference compound]	1130	4400	9	70															
COc1cc(/C=C/c2ccc(OC)cc2OC)cc(OC)c1 [Compound 1, reference compound]	298	8100	2.5	870	180	0.4048	0.9521	0.7398	1.01	1.028	0.996	0.9899							
COc1ccc(C=Cc2ccncc2)c(OC)c1 [Compound 3]	50.8	700	48	15	2.1								7	169	> 1000 and 1077	2333	160	0.000316	50
